Earlier results in patent US8383577B2, “Octreotide implant having a release agent” (Endo Pharmaceuticals Solutions, Inc., priority 2008, dated 2013).

Details: cited from earlier work

## D-tocopheryl (Vitamin E) polyethylene glycol 1000 succinate [Vitamin E TPGS]
Critical micelle concentration
  CMC: 0.1 mM
hydrophilic-lipophilic balance
  HLB: 13
